Here are results for 1 substance from article PMC11904221, “Repression of apelin Furin cleavage sites provides antimetastatic strategy in colorectal cancer” (EMBO Molecular Medicine, 2025).

One experiment concerns the target T1, apelin receptor (Homo sapiens, UniProt P35414).
T1 sequence (P35414 1-380): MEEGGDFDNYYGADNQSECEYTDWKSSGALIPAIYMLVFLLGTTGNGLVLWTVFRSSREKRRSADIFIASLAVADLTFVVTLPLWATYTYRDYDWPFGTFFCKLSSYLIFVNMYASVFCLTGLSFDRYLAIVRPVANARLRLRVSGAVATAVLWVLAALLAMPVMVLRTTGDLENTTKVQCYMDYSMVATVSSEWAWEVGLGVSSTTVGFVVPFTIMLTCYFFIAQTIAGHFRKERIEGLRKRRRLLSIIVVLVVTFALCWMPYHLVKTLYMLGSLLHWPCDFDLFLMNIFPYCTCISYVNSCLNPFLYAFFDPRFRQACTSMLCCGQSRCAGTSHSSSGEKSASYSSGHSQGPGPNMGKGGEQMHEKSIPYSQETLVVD
In words: Plasmon waveguide resonance (PWR) ligand binding. The note with it: HEK-apelin receptor cell membrane fragments on polylysine-treated sensor, 22 °C, n = 3.

For another experiment, the system named is E-selectin. In words: E-selectin expression in endothelial cells (LSEC, HMEC-1, HUVEC). The experiment is classed as cell-based, human. As to conditions: 100 nM apelin, time course.

The substance apelin [reference compound] displayed a Kd on apelin receptor of around 0.1 nM. In addition, the “E-selectin mRNA levels in LSEC” value with E-selectin was “increased at 2 h, peaked at 6 h, and remained elevated even after 8 h”.

Usually Kd stands for the constant that tells how readily two partners part at equilibrium. The low end stands for tighter binding, the high end for weaker binding.
